This note sets out measurements from ChEMBL document CHEMBL4842359, “1,3-Diarylpyrazolyl-acylsulfonamides as Potent Anti-tuberculosis Agents Targeting Cell Wall Biosynthesis in Mycobacterium tuberculosis” (J Med Chem, 2021).

In the assay the test system is Mycobacterium tuberculosis. Nature of the assay: microbe, parasite or virus in culture. Particulars: H37Rv, 336 h.

SMILES strings stand for the structures. In brackets after ≈: the same amount, converted by molar mass.

With `CS(=O)(=O)NC(=O)CCc1cn(-c2ccc(Br)cc2)nc1-c1ccncc1`, the MIC stood at 1.2 µM (≈ 0.539 µg/mL).
